Data as given in patent US20080261871A1, “Y2/Y4 Selective Receptor Agonists for Therapeutic Interventions” (priority 2004, published 2008).

The chains behind the UniProt entries cited, without tags or fusion partners. Where a name states a change or a piece, a line headed by the entry shows the natural chain unless it says otherwise.
UniProt P49146, whole entry: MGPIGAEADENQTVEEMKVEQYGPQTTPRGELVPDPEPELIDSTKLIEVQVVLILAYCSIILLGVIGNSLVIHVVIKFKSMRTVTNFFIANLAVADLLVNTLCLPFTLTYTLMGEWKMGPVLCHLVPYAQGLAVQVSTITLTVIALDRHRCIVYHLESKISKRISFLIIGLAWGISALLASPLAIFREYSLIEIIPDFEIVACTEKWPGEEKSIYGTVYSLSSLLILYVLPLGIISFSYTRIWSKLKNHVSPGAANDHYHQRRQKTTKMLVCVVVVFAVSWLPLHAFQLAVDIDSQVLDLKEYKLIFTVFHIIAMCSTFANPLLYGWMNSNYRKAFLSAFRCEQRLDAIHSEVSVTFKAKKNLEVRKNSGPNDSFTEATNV
UniProt P50391: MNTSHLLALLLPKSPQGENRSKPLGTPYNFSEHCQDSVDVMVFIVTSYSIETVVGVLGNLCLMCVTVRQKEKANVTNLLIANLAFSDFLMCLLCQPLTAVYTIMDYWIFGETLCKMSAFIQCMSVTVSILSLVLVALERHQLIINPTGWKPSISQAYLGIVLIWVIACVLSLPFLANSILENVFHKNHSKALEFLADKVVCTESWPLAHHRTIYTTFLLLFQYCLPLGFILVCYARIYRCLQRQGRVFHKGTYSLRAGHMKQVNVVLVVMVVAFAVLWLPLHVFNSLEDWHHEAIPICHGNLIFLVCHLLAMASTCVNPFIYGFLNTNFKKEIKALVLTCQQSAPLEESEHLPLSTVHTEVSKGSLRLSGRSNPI

Legend:
human Y2 receptor = human Y2 receptor (human, UniProt P49146 1-381); assay: cell-based or functional assay
human Y4 receptor = human Y4 receptor (human, UniProt P50391 1-375); assay: cell-based or functional assay

EC50, inositol phosphate turnover (human Y2 receptor) [nM] | EC50, inositol phosphate turnover (human Y4 receptor) [nM] | Binder
6.5 | 0.91 | APLEPVYPGDNATPEQMAQYAADLRRYINMITRQRY (C-terminal amide, PP analog with Ile at 31 and Gln at 34) [[Ile31,Gln34]PP]
9.9 | – | APLEPVYPGDNATPEQMAQYAADLRRYINMVTRQRY (C-terminal amide, PP analog with Val at 31 and Gln at 34) [[Val31,Gln34]PP]
